For one compound, Activity results are on record in ChEMBL document CHEMBL4382260, “Synthesis and biological evaluation as antiangiogenic agents of ureas derived from 3'-aminocombretastatin A-4” (Eur J Med Chem, 2019).

Assay [1] deals with A549. As to the kind of experiment: Cell cycle arrest in human A549 cells assessed as accumulation at G2/M phase at 54 uM after 24 hrs by propidium iodide staining based flow cytometry (reference value: 10 +/- 0.8%). Format: functional.
In assay [2] the test system is A549. As to the kind of experiment: Cell cycle arrest in human A549 cells assessed as accumulation at G0/G1 phase at 54 uM after 24 hrs by propidium iodide staining based flow cytometry (reference value: 60 +/- 1%). Format: functional. On the technique in general: A flow cytometer gives signals particle by particle.

`CNC(=O)c1cc(Oc2ccc(NC(=O)Nc3ccc(Cl)c(C(F)(F)F)c3)cc2)ccn1` [SORAFENIB]: the Activity with A549 [1] was determined as 19.4%; in the assay with A549 [2] it was 46.8%.
